Values of other authors as cited in patent publication US12018014B2, “Pyrrole-substituted indolone derivative or pharmaceutically acceptable salts thereof, and preparation method therefor and application thereof” (SUZHOU GENHOUSE PHARMACEUTICAL CO., LTD., priority 2018, dated 2024).

Tested on: FLT3-ITD phosphorylation
Conditions: single administration; cited from earlier work

CCN(CC)CCNC(=O)c1c(C)[nH]c(/C=C2\C(=O)Nc3ccc(F)cc32)c1C [Sunitinib]
duration of FLT3-ITD phosphorylation inhibitory effect: 16 h
